Data reported in publication PMC2892826 (Cell cycle (Georgetown, Tex.), 2009).

Sequences of proteins named here, by UniProt entry; tags and fusion partners are left off. A change or cut given only in a name is not applied to a line headed by its entry.
UniProt O09061: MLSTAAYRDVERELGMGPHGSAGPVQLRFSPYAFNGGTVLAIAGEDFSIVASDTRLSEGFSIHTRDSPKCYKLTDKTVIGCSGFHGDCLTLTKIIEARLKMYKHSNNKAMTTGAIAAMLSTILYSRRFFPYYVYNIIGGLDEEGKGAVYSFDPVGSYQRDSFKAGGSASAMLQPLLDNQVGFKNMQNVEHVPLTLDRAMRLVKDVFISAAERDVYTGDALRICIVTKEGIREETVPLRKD
UniProt O55234: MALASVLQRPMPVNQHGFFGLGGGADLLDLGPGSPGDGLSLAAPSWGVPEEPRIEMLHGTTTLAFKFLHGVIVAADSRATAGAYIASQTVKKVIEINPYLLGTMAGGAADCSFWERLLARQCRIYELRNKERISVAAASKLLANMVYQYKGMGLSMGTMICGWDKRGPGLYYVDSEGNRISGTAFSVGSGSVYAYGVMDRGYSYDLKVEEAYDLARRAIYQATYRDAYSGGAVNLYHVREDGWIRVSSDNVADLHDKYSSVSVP
UniProt P70195: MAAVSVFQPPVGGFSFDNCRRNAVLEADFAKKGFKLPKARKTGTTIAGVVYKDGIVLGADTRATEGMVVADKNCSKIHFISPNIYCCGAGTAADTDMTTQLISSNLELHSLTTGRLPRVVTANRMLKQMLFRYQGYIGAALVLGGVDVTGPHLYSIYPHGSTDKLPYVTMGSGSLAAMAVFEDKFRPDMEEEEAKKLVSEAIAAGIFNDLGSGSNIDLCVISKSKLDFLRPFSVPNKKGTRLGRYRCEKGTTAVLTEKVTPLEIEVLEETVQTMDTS
UniProt Q60692: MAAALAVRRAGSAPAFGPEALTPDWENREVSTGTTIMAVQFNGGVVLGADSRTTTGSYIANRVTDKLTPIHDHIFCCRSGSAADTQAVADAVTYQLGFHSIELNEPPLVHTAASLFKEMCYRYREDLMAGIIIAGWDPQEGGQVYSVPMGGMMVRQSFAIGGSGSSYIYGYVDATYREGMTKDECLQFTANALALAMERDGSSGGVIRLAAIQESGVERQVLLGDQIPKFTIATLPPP

Target: hepatic CT-L, T-L, and PGPH activities (Mus musculus, UniProt O09061+O55234+P70195+Q60692)
Assay type: in vivo, nude mice
Conditions: livers of A549 tumor-bearing mice, 1 mpk i.p., 2 h after last injection

CC(C)C[C@H](NC(=O)[C@H](Cc1ccccc1)NC(=O)c1cnccn1)B(O)O [Bortezomib]
effect on liver proteasome activities (CT-L, T-L, PGPH): significantly inhibited
